Results: publication PMC7723054
This is one part of the list.

Key:
Test in all cases: FOREST: bead pull-down of RNA structure library v1, barcode microarray; U1A/LIN28A: 20 mM HEPES pH 7.5, 80 mM KCl, 20 mM NaCl, 10% glycerol, 2 mM DTT, 0.1 ug/uL BSA, 4 C; BG4/CIRBP/DHX36: 10 mM Tris-HCl pH 7.5, 100 mM KCl (or LiCl),; high values mean tight binding
U1A = U1A (Homo sapiens, UniProt P09012)
LIN28A = target: T1, LIN28A (human?, UniProt Q9H9Z2 1-209)
T1 sequence: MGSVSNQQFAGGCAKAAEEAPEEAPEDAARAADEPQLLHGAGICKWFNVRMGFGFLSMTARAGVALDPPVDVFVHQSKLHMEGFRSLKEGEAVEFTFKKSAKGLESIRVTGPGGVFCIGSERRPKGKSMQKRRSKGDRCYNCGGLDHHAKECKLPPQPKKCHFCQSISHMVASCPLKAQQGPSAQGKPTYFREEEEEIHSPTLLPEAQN

CIRBP = target: T2, CIRBP (Homo sapiens, UniProt Q14011 1-172)
T2 sequence: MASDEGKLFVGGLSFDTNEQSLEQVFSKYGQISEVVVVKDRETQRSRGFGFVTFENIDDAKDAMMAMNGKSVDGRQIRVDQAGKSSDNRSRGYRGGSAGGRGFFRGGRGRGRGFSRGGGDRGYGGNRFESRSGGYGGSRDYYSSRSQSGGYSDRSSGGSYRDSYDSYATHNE

DHX36 = target: T3, DHX36 (Homo sapiens, UniProt Q9H2U1 1-1008)
T3 sequence: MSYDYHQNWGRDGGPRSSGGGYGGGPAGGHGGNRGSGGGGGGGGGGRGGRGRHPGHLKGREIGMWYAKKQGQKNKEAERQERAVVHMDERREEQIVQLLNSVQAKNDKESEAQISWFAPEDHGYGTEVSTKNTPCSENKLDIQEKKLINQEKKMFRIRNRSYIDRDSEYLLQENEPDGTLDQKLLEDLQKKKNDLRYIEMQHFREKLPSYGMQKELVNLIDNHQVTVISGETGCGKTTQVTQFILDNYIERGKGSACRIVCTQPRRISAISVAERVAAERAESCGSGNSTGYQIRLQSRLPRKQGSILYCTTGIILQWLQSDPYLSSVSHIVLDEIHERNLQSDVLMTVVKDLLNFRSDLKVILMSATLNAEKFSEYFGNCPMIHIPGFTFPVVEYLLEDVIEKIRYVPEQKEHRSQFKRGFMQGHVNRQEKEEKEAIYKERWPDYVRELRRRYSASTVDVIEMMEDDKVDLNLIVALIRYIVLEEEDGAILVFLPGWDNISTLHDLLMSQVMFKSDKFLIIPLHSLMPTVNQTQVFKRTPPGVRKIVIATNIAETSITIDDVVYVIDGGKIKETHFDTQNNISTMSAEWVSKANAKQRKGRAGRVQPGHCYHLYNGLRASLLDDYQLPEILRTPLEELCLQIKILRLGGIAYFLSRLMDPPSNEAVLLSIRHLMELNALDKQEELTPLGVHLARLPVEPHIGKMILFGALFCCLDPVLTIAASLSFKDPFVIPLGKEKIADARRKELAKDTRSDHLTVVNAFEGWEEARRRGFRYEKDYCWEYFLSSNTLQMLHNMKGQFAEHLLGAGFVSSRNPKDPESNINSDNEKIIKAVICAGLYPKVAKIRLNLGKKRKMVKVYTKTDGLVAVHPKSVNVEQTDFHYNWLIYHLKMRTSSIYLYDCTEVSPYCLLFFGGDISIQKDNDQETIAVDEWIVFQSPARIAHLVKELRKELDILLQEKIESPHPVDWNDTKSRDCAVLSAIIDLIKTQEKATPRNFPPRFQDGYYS

B1: hsa-mir-655 (structured_RNA)
RNA: GGGAAACCGAGGCAUUAUAUCACACGGUGGUGUACGAAGUUUCAGCAUGUUCGCUUCAUUCAUCAUGAAUAAGCUGAAGCUUCGUGCAC
For B1, the binding signal (U1A) was 0.39 z-score, the binding signal (LIN28A) was 0.576 z-score and the binding signal (CIRBP) was 0.208 z-score. It also gave a binding signal (DHX36) of -0.755 z-score.

B2: hsa-mir-600 (structured_RNA)
RNA: GGGAAGUGGACCCAACUUAAUAUUGCGCGGUGUACGAAGUUUCAGCCAGGCAGUGGAGUUACUUGCUGAAGCUUCGUGCAC
B2 was tested, and the binding signal (U1A) was 0.388 z-score, the binding signal (LIN28A) was 2.19 z-score and the binding signal (CIRBP) was 1.84 z-score. It also gave a binding signal (DHX36) of 1.27 z-score.

B3: hsa-mir-4644 (structured_RNA)
RNA: GGGAGAUUAGAUAAGCAGUCGAACUACGGGUGUACGAAGUUUCAGCUCCACCCUGGUCCAGGUCCACAGCAGUGGAGCUGAAGCUUCGUGCAC
With B3 the binding signal (U1A) was 0.387 z-score, the binding signal (LIN28A) was -0.729 z-score and the binding signal (CIRBP) was 0.665 z-score. For the same binder, the binding signal (DHX36) was -0.723 z-score.

B4: hsa-mir-4316 (structured_RNA)
RNA: GGGACGCCGGAGGUCAAAGUCUUAGGUAGGUGUACGAAGUUUCAGCUGUGGUCACCCACUCUGCUGAAGCUUCGUGCAC
For B4, the binding signal (U1A) was 0.384 z-score, the binding signal (LIN28A) was -0.571 z-score and the binding signal (CIRBP) was 0.301 z-score. It also gave a binding signal (DHX36) of 0.242 z-score.

B5: hsa-mir-670 (structured_RNA)
RNA: GGGAAAUCAGCACUACCUGACGGAGAGGGGUGUACGAAGUUUCAGCGUGAACCUGAAUUUGCCUUGGGUUUCCUGCUGAAGCUUCGUGCAC
B5 gave a binding signal (U1A) of 0.387 z-score, a binding signal (LIN28A) of 0.661 z-score and a binding signal (CIRBP) of 0.462 z-score. It also gave a binding signal (DHX36) of -0.224 z-score.

B6: hsa-mir-326 (structured_RNA)
RNA: GGGCAUGUGGGUCUCACUCAUAGCGUACGGUGUACGAAGUUUCAGCAAGGCGGGUGGUGCUCAGAUCGCCUGCUGAAGCUUCGUGCAC
B6 gave a binding signal (U1A) of 0.391 z-score, a binding signal (LIN28A) of -0.0775 z-score and a binding signal (CIRBP) of -0.796 z-score. The binding signal (DHX36) was 1.59 z-score.

B7: hsa-mir-338 (structured_RNA)
RNA: GGGAACUUGCAUGACGUAUCUUCACGCGGGUGUACGAAGUUUCAGCUGAGUGAUGACUCAGGCGACUCCAGCUGAAGCUUCGUGCAC
With B7 the binding signal (U1A) was 0.386 z-score, the binding signal (LIN28A) was 0.448 z-score and the binding signal (CIRBP) was -0.843 z-score. The binding signal (DHX36) was -0.574 z-score.

B8: hsa-mir-8060 (structured_RNA)
RNA: GGGAUCCAAGGCACGCGGAAGUAAACUUGGUGUACGAAGUUUCAGCUGGUCAGAUAUCCCAUGCUGAAGCUUCGUGCAC
B8 gave a binding signal (U1A) of 0.388 z-score, a binding signal (LIN28A) of -0.181 z-score and a binding signal (CIRBP) of -1.06 z-score. The binding signal (DHX36) was 0.458 z-score.

B9: hsa-mir-6887 (structured_RNA)
RNA: GGGAGGCGAUCGUACCCGUAAGAAUCGCGGUGUACGAAGUUUCAGCAGGACACAGGCUGGCACUGAGGUCCCGCUGAAGCUUCGUGCAC
Binder B9 has a binding signal (U1A) of 0.39 z-score, a binding signal (LIN28A) of 0.0934 z-score and a binding signal (CIRBP) of -1.78 z-score. For the same binder, the binding signal (DHX36) was -1.19 z-score.

B10: hsa-mir-433 (structured_RNA)
RNA: GGGAUCCUGAGACAAUCGAGUAUCAAUGGGUGUACGAAGUUUCAGCUUAUUCAGAGAGGCUAGAUCCUCUGUGUUGAGAAGGAUCAGCUGAAGCUUCGUGCAC
Work on B10 yielded a binding signal (U1A) of 0.389 z-score, a binding signal (LIN28A) of 0.88 z-score and a binding signal (CIRBP) of -0.923 z-score. For the same binder, the binding signal (DHX36) was 0.12 z-score.

B11: hsa-mir-6512 (structured_RNA)
RNA: GGGAUACGGUGGACCACAGAUAAUCGAUGGUGUACGAAGUUUCAGCGGAAGAAGGCUGAGGGAGAUGCCUUCUUCCGCUGAAGCUUCGUGCAC
Work on B11 yielded a binding signal (U1A) of 0.385 z-score, a binding signal (LIN28A) of 0.58 z-score and a binding signal (CIRBP) of 0.314 z-score. For the same binder, the binding signal (DHX36) was 0.2 z-score.

B12: hsa-mir-4692 (structured_RNA)
RNA: GGGACUCCAACGUUGUUCACCCAUGAUCGGUGUACGAAGUUUCAGCCUGGGUGGGACACUCAGGCUGAAGCUUCGUGCAC
B12 gave a binding signal (U1A) of 0.382 z-score, a binding signal (LIN28A) of -0.739 z-score and a binding signal (CIRBP) of -0.468 z-score. It also gave a binding signal (DHX36) of -0.716 z-score.
